Values of other authors, collected in article PMC12037675, “Design of self-emulsifying oral delivery systems for semaglutide: reverse micelles versus hydrophobic ion pairs” (Drug Delivery and Translational Research, 2024).

Conditions: hydrophobic ion pairs; cited from earlier work
Source text: Administration of therapeutic (poly)peptides is still widely limited to the parenteral route even though oral administration is both favored from a patient as well as from a commercial point of view. So far mostly endocrine disorders and in particular diabetes have been targeted by oral (poly)peptide drug delivery. Administration of (poly)peptides such as insulin or GLP-1 analogues via the oral pathway, however, is challenging because of the inactivation of these therapeutic agents under harsh pH conditions, degradation by proteolytic enzymes, thiol/disulfide exchange reaction ... || It was therefore the aim of this study to evaluate the potential of reverse micelles versus HIP for the formation of lipophilic complexes to be incorporated into SEDDS. Among GLP-1 analogues semaglutide was chosen as model drug, since a marketed oral formulation (Rybelsus®) is already available. Besides its use for treatment of type 2 diabetes, this peptide has recently gained huge attention as anti-obesity drug.

For insulin, the “Improvement in oral bioavailability by ion pairing” value is given as “up to 8 fold”.
